Sampled rows, rich in hits. Any-hit rate of the full collection: about 2.1%.
miR-122 sensor = inhibitors of miR-122 in Huh7 cells | Huh7 miR-122 Renilla luciferase sensor, 48 h; neutral wells = 0, positive control = 100 | activation (reporter increase), % at 12.5 µM | 340,000 compounds, 0.3% hits;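 active = mean replicate activation score at least 90 and every replicate individually at or above 90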;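 note: higher luciferase means less miR-122 activity so hits act as miR-122 inhibitors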
Wnt act = activators of Wnt/beta-catenin signaling; Wnt/beta-catenin reporter cell assay, activator, plate reader; activation, % at 9.35 µM; 300,000 compounds, 1.2% hits; AID 743398; in the data active = activation above about 30%, passing the limit was not always enough
MITF TRPM1 inh = reduces MITF-dependent TRPM1 promoter luciferase signal; inhibition, % at 12.5 µM; 330,000 compounds, 0.83% hits; SK-MEL-5 TRPM1 promoter luciferase, 24 h;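 active = mean inhibition across replicates of 60% or more, whatever share of single replicates reaches that level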
MITF TRPM1 HTS = increases MITF-driven TRPM1 promoter luciferase signal. activation, % at 12.5 µM. SK-MEL-5 TRPM1-promoter luciferase, 24 h; % of positive control, neutral wells = 0. 300,000 compounds, 0.75% hits. AID 588334;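 active = mean activation of at least 80% with every replicate also reaching 80%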
Yeast UUG start = modulators of start codon recognition fidelity in yeast; AID 602363; activity score, % at 18.7 µM; S. cerevisiae UUG-firefly luciferase reporter, luminescence/redox ratio; 0.13% of 350,000 active;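 active = replicate mean at a twofold rise or more, about +100% in these data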;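 note: firefly luciferase made from a UUG start codon reports start codon fidelity; reporter light over untreated wells divided by growth signal over untreated wells; some hits fall short of that in this replicate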
PGC1a acetyl inh = PGC1a acetylation modulation, inhibitor mode. AID 651687. U2OS PGC1a acetylation, AlphaScreen anti-acetyl-lysine; with virally co-expressed GCN5 acetyltransferase. 350,000 compounds, 0.17% hits. inhibition, % at 15.6 µM;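 active = every replicate shows inhibition of at least 40%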
Numbers stand for hits; [ ] = remark or other dose.

Screening CCOC(=O)C1CCN(C2=NC(=O)/C(=C/c3ccc(Cl)cc3)S2)CC1 returned miR-122 sensor inactive, Wnt act inactive, MITF TRPM1 inh inactive, MITF TRPM1 HTS inactive, Yeast UUG start inactive and PGC1a acetyl inh inactive.
CCOC(=O)CSC1=NC(=O)/C(=C\c2ccc(Cl)cc2)S1 was read as miR-122 sensor inactive, MITF TRPM1 inh 66, MITF TRPM1 HTS inactive, Yeast UUG start inactive and PGC1a acetyl inh inactive.
`CCc1nc2n(n1)C(O)c1cc([N+](=O)[O-])ccc1S2` (stereo not given) gave Wnt act 42 and MITF TRPM1 inh inactive.
`CCN(CC)C(=O)c1cc2cc([N+](=O)[O-])ccc2s1` gave miR-122 sensor inactive, Wnt act inactive, MITF TRPM1 inh inactive, MITF TRPM1 HTS inactive, Yeast UUG start inactive and PGC1a acetyl inh inactive.
Screening CCC(=O)N(Cc1cc(=O)[nH]c2ccccc12)c1ccccc1 returned miR-122 sensor inactive, Wnt act inactive, MITF TRPM1 inh inactive, MITF TRPM1 HTS inactive, Yeast UUG start inactive and PGC1a acetyl inh inactive.
O=C(CCl)N(Cc1cc(=O)[nH]c2ccccc12)c1ccccc1 was read as Wnt act inactive, MITF TRPM1 inh 69 and MITF TRPM1 HTS inactive.
CN(C)C(=O)c1cccc(-c2ccc([C@H]3[C@H]4CN(C(=O)C5CCCC5)CC(=O)N4[C@H]3CO)cc2)c1 was read as PGC1a acetyl inh inactive.
`COc1cccc(CNC(=O)C(Cc2ccccc2)n2cccc2)c1` (stereo not given) gave Wnt act 44, MITF TRPM1 inh inactive, MITF TRPM1 HTS inactive and PGC1a acetyl inh inactive.
For O=C1CNC(=S)N1CCc1ccc(O)c(O)c1 the results were miR-122 sensor inactive, Wnt act 50, Yeast UUG start inactive and PGC1a acetyl inh inactive.
`COc1ccc(-n2cc(-c3ccc(C)cc3)[n+]3c2SCC3)cc1` gave MITF TRPM1 inh 71 and MITF TRPM1 HTS inactive.
COc1cccc(C(=O)N2C[C@H]3[C@@H](c4ccccc42)[C@@H](CO)N3Cc2ccccc2F)c1 was read as miR-122 sensor inactive, Yeast UUG start inactive and PGC1a acetyl inh inactive.
For COc1ccc(NC(=O)Nc2ccc3c(c2)C(=O)N([C@@H](C)CO)C[C@@H](C)[C@@H](CN(C)C(=O)CCC(F)(F)F)OCCCC[C@@H](C)O3)cc1 the results were miR-122 sensor inactive, Yeast UUG start inactive and PGC1a acetyl inh inactive.
Screening Cc1ccc(NC(=O)c2ccccn2)c(Br)c1 returned Wnt act 37, MITF TRPM1 inh inactive and MITF TRPM1 HTS inactive.
`Cc1cccc(NC(=O)c2onc3c2CCCC3)c1C` gave miR-122 sensor inactive, MITF TRPM1 inh inactive, MITF TRPM1 HTS 86, Yeast UUG start inactive and PGC1a acetyl inh inactive.
Cc1ccc(C)c(NC(=O)c2ccccn2)c1 was read as miR-122 sensor inactive, Wnt act inactive, MITF TRPM1 inh inactive, MITF TRPM1 HTS inactive and PGC1a acetyl inh inactive.
`CSCc1ccc(C(=O)Nc2cccc(C)c2C)cc1` gave Wnt act 34, MITF TRPM1 inh inactive and MITF TRPM1 HTS 112.
For Cc1ccccc1NC(=O)c1onc2c1CCCC2 the results were miR-122 sensor inactive, Wnt act inactive, MITF TRPM1 inh inactive, MITF TRPM1 HTS inactive and PGC1a acetyl inh inactive.
`Cc1cccc(NC(=O)c2ccccn2)c1C` gave miR-122 sensor inactive, Wnt act 36, MITF TRPM1 inh inactive, MITF TRPM1 HTS inactive, Yeast UUG start inactive and PGC1a acetyl inh inactive.
Screening O=C(C1CCCCC1)N1C[C@H]2[C@@H](c3ccccc31)[C@H](CO)N2C(=O)c1ccccc1 returned miR-122 sensor inactive, Yeast UUG start inactive and PGC1a acetyl inh inactive.
`C[C@@H]1CN([C@@H](C)CO)C(=O)c2cc(NC(=O)CCC(F)(F)F)ccc2O[C@H]1CN(C)CC1CCCCC1` gave miR-122 sensor inactive, Yeast UUG start inactive and PGC1a acetyl inh inactive.
CCCNC(=O)N1CC2(CCN(Cc3cccnc3)CC2)c2c(n(C)c3cc(OC)ccc23)[C@H]1CO was read as PGC1a acetyl inh inactive.
Cc1noc(C)c1NC(=O)Nc1cccc2c1O[C@@H](CN(C)C)[C@@H](C)CN([C@@H](C)CO)C2=O was read as miR-122 sensor inactive, Yeast UUG start inactive and PGC1a acetyl inh inactive.
For C[C@@H](NC(=O)[C@@H]1[C@@H](CO)[C@@H]2Cn3c(cccc3=O)[C@H]1N2Cc1cccnc1)c1ccccc1 the results were miR-122 sensor inactive.
`Cc1cc(C)cc(N2Cc3ccccc3C2)c1` gave miR-122 sensor inactive, Wnt act inactive, MITF TRPM1 inh inactive, MITF TRPM1 HTS inactive, Yeast UUG start inactive and PGC1a acetyl inh inactive.
Screening CCOC(=O)c1ccc(N2Cc3ccccc3C2)cc1O returned miR-122 sensor inactive, Wnt act inactive, MITF TRPM1 inh inactive, MITF TRPM1 HTS 106, Yeast UUG start inactive and PGC1a acetyl inh inactive.
Screening CCc1ccc(N2Cc3ccccc3C2)cc1 returned Wnt act inactive, MITF TRPM1 inh inactive and MITF TRPM1 HTS 86.
Screening C[C@@H]1CN([C@@H](C)CO)C(=O)c2cccc(NC(=O)C3CCCCC3)c2O[C@H]1CN(C)Cc1ccc(C(F)(F)F)cc1 returned miR-122 sensor inactive, Yeast UUG start inactive and PGC1a acetyl inh inactive.
For C[C@H]1CN([C@@H](C)CO)C(=O)c2cccc(NC(=O)C3CCCCC3)c2O[C@@H]1CN(C)Cc1ccc(C(F)(F)F)cc1 the results were miR-122 sensor 94[16.7 µM], Yeast UUG start inactive and PGC1a acetyl inh inactive.
`C[C@@H]1CN([C@@H](C)CO)C(=O)c2cccc(NC(=O)C3CCOCC3)c2O[C@@H]1CN(C)Cc1ccc(C(F)(F)F)cc1` gave miR-122 sensor inactive, Yeast UUG start inactive and PGC1a acetyl inh inactive.
For C[C@H]1CN([C@@H](C)CO)C(=O)c2cccc(NC(=O)C3CC3)c2O[C@@H]1CN(C)Cc1ccc(C(F)(F)F)cc1 the results were miR-122 sensor 113[16.7 µM], Yeast UUG start inactive and PGC1a acetyl inh inactive.
Screening C[C@H](CO)N1C[C@H](C)[C@@H](CN(C)Cc2ccc(C(F)(F)F)cc2)Oc2c(NC(=O)C3CCCCC3)cccc2C1=O returned miR-122 sensor 122[16.7 µM], Yeast UUG start inactive and PGC1a acetyl inh inactive.
`C[C@H](CO)N1C[C@H](C)[C@H](CN(C)Cc2ccc(C(F)(F)F)cc2)Oc2c(NC(=O)C3CC3)cccc2C1=O` gave miR-122 sensor inactive, Yeast UUG start inactive and PGC1a acetyl inh inactive.
`C[C@H]1CN([C@@H](C)CO)C(=O)c2cccc(NC(=O)C3CCOCC3)c2O[C@@H]1CN(C)Cc1ccc(C(F)(F)F)cc1` gave miR-122 sensor 105[16.7 µM], Yeast UUG start inactive and PGC1a acetyl inh inactive.
C[C@H]1CN([C@@H](C)CO)C(=O)c2cccc(NC(=O)NC3CCCCC3)c2O[C@@H]1CN(C)Cc1ccc(C(F)(F)F)cc1 was read as miR-122 sensor 121[16.7 µM], Yeast UUG start inactive and PGC1a acetyl inh inactive.

Screening results as filed in PubChem BioAssay.
